Measurements taken from the OPERA property sets (Mansouri et al. 2018).

Conditions: experimental values compiled from the literature

Row | SMILES | logP
1 | C=NNc1ccc([N+](=O)[O-])cc1[N+](=O)[O-] | 2.33
2 | O=[N+]([O-])N1CN([N+](=O)[O-])CN([N+](=O)[O-])C1 | 0.87
